These are literature values, as cited in PMC7399559.

In the data set the target is trypsin (Bos taurus) (UniProt P00760).

Where “and” joins values, the source holds several entries; their conditions need not be identical. Identical values can stand only once.

The Kd is the concentration at which binding is half-saturated. On to BPTI (from UniProt P00974), for which the Kd is 0.05 pM and 0.06 pM.
